Data published in ChEMBL document CHEMBL1221249, “Synthesis and in vitro binding studies of piperazine-alkyl-naphthamides: impact of homology and sulphonamide/carboxamide bioisosteric replacement on the affinity for 5-HT1A, alpha2A, D4.2, D3 and D2L receptors” (Bioorg Med Chem Lett, 2010).

How the values were obtained:
[1] = target: 5-hydroxytryptamine receptor 1A (Homo sapiens) (UniProt P08908); test: Displacement of [3H]MK912 from human alpha2A receptor after 60 mins
[2] = target: D(4) dopamine receptor (Homo sapiens) (UniProt P21917); test: Displacement of [3H]8OH-DPAT from human 5HT1A receptor after 60 mins

Q: How did the Ki [1] turn out when `COc1ccccc1N1CCN(CCCCCCNC(=O)c2ccc3ccccc3c2)CC1` was run?
A: 6.15 nM

Q: And the Ki [2]?
A: 102 nM
